Test results taken from ChEMBL document CHEMBL1157322, “Pregnane glycosides from Leptadenia pyrotechnica” (2006).

What was measured:
HEK293 = assay: Antiproliferative activity against HEK293 cells after 3 days by MTT conversion assay
J774.A1 = assay: Antiproliferative activity against mouse J774.A1 cells after 3 days by MTT conversion assay
WEHI-164 = assay: Antiproliferative activity against mouse WEHI164 cells after 3 days by MTT conversion assay

Compound | IC50 (HEK293) [µM] | IC50 (J774.A1) [µM] | IC50 (WEHI-164) [µM]
CO[C@H]1[C@@H](O)[C@@H](C)O[C@@H](O[C@H]2[C@@H](OC)C[C@H](O[C@H]3[C@@H](OC)C[C@H](O[C@@H]4[C@@H](C)O[C@@H](O[C@H]5CC[C@@]6(C)C(=CC[C@]7(O)[C@@H]6C[C@@H](OC(=O)c6ccccc6)[C@@]6(C)[C@]7(O)CC[C@]6(O)[C@H](C)OC(=O)c6ccccc6)C5)C[C@H]4OC)O[C@@H]3C)O[C@@H]2C)[C@@H]1O | 1.78 | 1.21 | –
CO[C@@H]1[C@@H](O)[C@H](O[C@@H]2[C@@H](C)O[C@@H](O[C@H]3[C@@H](OC)C[C@H](O[C@H]4[C@H](O)C[C@H](O[C@H]5CC[C@@]6(C)C(=CC[C@]7(O)[C@@H]6C[C@@H](OC(C)=O)[C@@]6(C)[C@]7(O)CC[C@]6(O)C(C)=O)C5)O[C@@H]4C)O[C@@H]3C)C[C@H]2OC)O[C@H](C)[C@H]1O | – | 0.78 | 0.64
CO[C@H]1[C@@H](O)[C@@H](C)O[C@@H](O[C@@H]2[C@@H](C)O[C@@H](O[C@H]3[C@@H](OC)C[C@H](O[C@H]4[C@@H](OC)C[C@H](O[C@H]5CC[C@@]6(C)C(=CC[C@]7(O)[C@@H]6C[C@@H](OC(=O)/C=C/c6ccccc6)[C@@]6(C)[C@]7(O)CC[C@]6(O)[C@H](C)O)C5)O[C@@H]4C)O[C@@H]3C)C[C@H]2OC)[C@@H]1O | 0.46 | 2.11 | –
CO[C@@H]1[C@@H](O)[C@H](O[C@H]2[C@@H](OC)C[C@H](O[C@H]3[C@@H](OC)C[C@H](O[C@H]4CC[C@@]5(C)C(=CC[C@]6(O)[C@@H]5C[C@@H](OC(=O)/C=C/c5ccccc5)[C@@]5(C)[C@]6(O)CC[C@]5(O)C(C)=O)C4)O[C@@H]3C)O[C@@H]2C)O[C@H](C)[C@@H]1O[C@H]1C[C@@H](OC)[C@H](O[C@@H]2O[C@H](CO[C@@H]3O[C@H](CO)[C@@H](O)[C@H](O)[C@H]3O)[C@@H](O)[C@H](O)[C@H]2O)[C@@H](C)O1 | 0.59 | 0.62 | 0.95
CO[C@H]1C[C@H](O[C@@H]2[C@@H](C)O[C@@H](O[C@H]3CC[C@@]4(C)C(=CC[C@]5(O)[C@@H]4C[C@@H](OC(=O)/C=C/c4ccc(O)cc4)[C@@]4(C)[C@]5(O)CC[C@]4(O)C(C)=O)C3)C[C@H]2OC)O[C@H](C)[C@H]1O[C@H]1C[C@H](OC)[C@H](O[C@@H]2O[C@H](CO)[C@@H](O)[C@H](O)[C@H]2O)[C@@H](C)O1 | 0.1 | 0.12 | 0.08
CO[C@@H]1[C@@H](O)[C@H](O[C@@H]2[C@@H](C)O[C@@H](O[C@H]3[C@@H](OC)C[C@H](O[C@H]4[C@@H](OC)C[C@H](O[C@H]5CC[C@@]6(C)C(=CC[C@]7(O)[C@@H]6[C@H](O)[C@@H](OC(=O)/C=C/c6ccccc6)[C@@]6(C)[C@]7(O)CC[C@]6(O)[C@H](C)O)C5)O[C@@H]4C)O[C@@H]3C)C[C@H]2OC)O[C@H](C)[C@H]1O[C@@H]1O[C@H](CO)[C@@H](O)[C@H](O)[C@H]1O | – | 0.78 | –
CO[C@H]1[C@@H](O)[C@@H](C)O[C@@H](O[C@@H]2[C@@H](C)O[C@@H](O[C@H]3[C@@H](OC)C[C@H](O[C@H]4[C@@H](OC)C[C@H](O[C@H]5CC[C@@]6(C)C(=CC[C@]7(O)[C@@H]6C[C@@H](OC(C)=O)[C@@]6(C)[C@]7(O)CC[C@]6(O)C(C)=O)C5)O[C@@H]4C)O[C@@H]3C)C[C@H]2OC)[C@@H]1O | – | 0.79 | 0.72
CO[C@@H]1[C@@H](O)[C@H](O[C@H]2[C@@H](OC)C[C@H](O[C@H]3[C@@H](OC)C[C@H](O[C@H]4CC[C@@]5(C)C(=CC[C@]6(O)[C@@H]5C[C@@H](OC(=O)/C=C/c5ccccc5)[C@@]5(C)[C@]6(O)CC[C@]5(O)[C@H](C)O)C4)O[C@@H]3C)O[C@@H]2C)O[C@H](C)[C@@H]1O[C@H]1C[C@@H](OC)[C@H](O[C@@H]2O[C@H](CO[C@@H]3O[C@H](CO)[C@@H](O)[C@H](O)[C@H]3O)[C@@H](O)[C@H](O)[C@H]2O)[C@@H](C)O1 | – | 0.88 | –
CO[C@H]1C[C@H](O[C@H]2CC[C@@]3(C)C(=CC[C@]4(O)[C@@H]3C[C@@H](OC(=O)/C=C/c3ccccc3)[C@@]3(C)[C@]4(O)CC[C@]3(O)[C@H](C)O)C2)O[C@H](C)[C@H]1O[C@H]1C[C@H](OC)[C@H](O[C@H]2C[C@H](OC)[C@H](O[C@@H]3O[C@H](CO[C@@H]4O[C@H](CO)[C@@H](O)[C@H](O)[C@H]4O)[C@@H](O)[C@H](O)[C@H]3O)[C@@H](C)O2)[C@@H](C)O1 | – | 0.91 | 0.94
CO[C@H]1[C@@H](O)[C@@H](C)O[C@@H](O[C@@H]2[C@@H](C)O[C@@H](O[C@H]3[C@@H](OC)C[C@H](O[C@H]4[C@@H](OC)C[C@H](O[C@H]5CC[C@@]6(C)C(=CC[C@]7(O)[C@@H]6C[C@@H](OC(=O)/C=C/c6ccccc6)[C@@]6(C)[C@]7(O)CC[C@]6(O)[C@H](C)OC(=O)c6ccccc6)C5)O[C@@H]4C)O[C@@H]3C)C[C@H]2OC)[C@@H]1O | – | 1.22 | –
CO[C@@H]1[C@@H](O)[C@H](O[C@@H]2[C@@H](C)O[C@@H](O[C@H]3[C@@H](OC)C[C@H](O[C@H]4[C@@H](OC)C[C@H](O[C@H]5CC[C@@]6(C)C(=CC[C@]7(O)[C@@H]6C[C@@H](OC(=O)/C=C/c6ccccc6)[C@@]6(C)[C@]7(O)CC[C@]6(O)C(C)=O)C5)O[C@@H]4C)O[C@@H]3C)C[C@H]2OC)O[C@H](C)[C@@H]1O[C@@H]1O[C@H](CO)[C@@H](O)[C@H](O)[C@H]1O | 0.23 | 0.056 | 0.39
CO[C@H]1C[C@H](O[C@@H]2[C@@H](C)O[C@@H](O[C@H]3CC[C@@]4(C)C(=CC[C@]5(O)[C@@H]4C[C@@H](OC(=O)/C=C/c4ccccc4)[C@@]4(C)[C@]5(O)CC[C@]4(O)C(C)=O)C3)C[C@H]2OC)O[C@H](C)[C@H]1O[C@H]1C[C@@H](OC)[C@H](O[C@H]2C[C@@H](OC)[C@H](O[C@@H]3O[C@H](CO[C@@H]4O[C@H](CO)[C@@H](O)[C@H](O)[C@H]4O)[C@@H](O)[C@H](O)[C@H]3O)[C@@H](C)O2)[C@@H](C)O1 | 0.43 | 0.74 | 0.66
CO[C@@H]1[C@@H](O)[C@H](O[C@H]2[C@@H](OC)C[C@H](O[C@H]3[C@@H](OC)C[C@H](O[C@H]4[C@@H](OC)C[C@H](O[C@H]5CC[C@@]6(C)C(=CC[C@]7(O)[C@@H]6C[C@@H](OC(=O)/C=C/c6ccccc6)[C@@]6(C)[C@]7(O)CC[C@]6(O)[C@H](C)OC(=O)c6ccccn6)C5)O[C@@H]4C)O[C@@H]3C)O[C@@H]2C)O[C@H](C)[C@H]1O[C@@H]1O[C@H](CO)[C@@H](O)[C@H](O)[C@H]1O | 1.37 | – | 0.64
CO[C@H]1C[C@H](O[C@H]2CC[C@@]3(C)C(=CC[C@]4(O)[C@@H]3C[C@@H](OC(=O)/C=C/c3ccccc3)[C@@]3(C)[C@]4(O)CC[C@]3(O)C(C)=O)C2)O[C@H](C)[C@H]1O[C@H]1C[C@H](OC)[C@H](O[C@H]2C[C@@H](OC)[C@H](O[C@@H]3O[C@H](CO[C@@H]4O[C@H](CO)[C@@H](O)[C@H](O)[C@H]4O)[C@@H](O)[C@H](O)[C@H]3O)[C@@H](C)O2)[C@@H](C)O1 | 0.35 | 0.064 | 0.38
CO[C@H]1[C@@H](O)[C@@H](C)O[C@@H](O[C@@H]2[C@@H](C)O[C@@H](O[C@H]3[C@@H](OC)C[C@H](O[C@H]4[C@@H](OC)C[C@H](O[C@H]5CC[C@@]6(C)C(=CC[C@]7(O)[C@@H]6C[C@@H](OC(=O)/C=C/c6ccccc6)[C@@]6(C)[C@]7(O)CC[C@]6(O)C(C)=O)C5)O[C@@H]4C)O[C@@H]3C)C[C@H]2OC)[C@@H]1O | 0.07 | 0.126 | 0.14
CO[C@@H]1[C@@H](O)[C@H](O[C@H]2[C@@H](OC)C[C@H](O[C@H]3[C@@H](OC)C[C@H](O[C@H]4[C@@H](OC)C[C@H](O[C@H]5CC[C@@]6(C)C(=CC[C@]7(O)[C@@H]6C[C@@H](OC(=O)/C=C/c6ccccc6)[C@@]6(C)[C@]7(O)CC[C@]6(O)C(C)=O)C5)O[C@@H]4C)O[C@@H]3C)O[C@@H]2C)O[C@H](C)[C@H]1O[C@@H]1O[C@H](CO)[C@@H](O)[C@H](O)[C@H]1O | 0.38 | 0.05 | 0.85
CO[C@H]1[C@@H](O)[C@@H](C)O[C@@H](O[C@@H]2[C@@H](C)O[C@@H](O[C@H]3[C@@H](OC)C[C@H](O[C@@H]4CO[C@@H](O[C@H]5CC[C@@]6(C)C(=CC[C@]7(O)[C@@H]6C[C@@H](OC(=O)c6ccccc6)[C@@]6(C)[C@]7(O)CC[C@]6(O)[C@H](C)OC(=O)c6ccccc6)C5)C[C@@H]4OC)O[C@@H]3C)C[C@H]2OC)[C@@H]1O | 0.62 | 1.86 | –
